## Ab-14 heavy chain CDR variants: yeast mating affinities

The measurements come from Li et al. 2023 (doi:10.1038/s41467-023-39022-2) through the FLAb antibody collection.

Target peptide (SARS-CoV-2 spike, HR2 region): PDVDLGDISGINAS

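The starting antibody came from a phage panning campaign against this peptide. Designed CDR sequences, proposed from the first random library and measured here. Their group label is 14H_Ctrl (Ctrl: baseline library sampled from a position-specific scoring matrix, with some repeated check sequences). The scFvs were displayed on barcoded MATa yeast, the peptide on MATalpha yeast. Pairs that bind mate more often; barcode pairs of the diploids are counted by sequencing. The ratio of observed to expected reads was calibrated, replicate by replicate, on BCL2-family standards whose Kd was known from biolayer interferometry. There are six technical replicates.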

The variants keep the light chain, the linker and the frameworks of Ab-14 (scFv order VH, a (GGGGS)3 linker, VL).
VH: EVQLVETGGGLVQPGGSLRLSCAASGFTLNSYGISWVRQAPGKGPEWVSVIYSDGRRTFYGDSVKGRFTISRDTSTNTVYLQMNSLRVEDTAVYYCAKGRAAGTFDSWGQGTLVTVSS
VL: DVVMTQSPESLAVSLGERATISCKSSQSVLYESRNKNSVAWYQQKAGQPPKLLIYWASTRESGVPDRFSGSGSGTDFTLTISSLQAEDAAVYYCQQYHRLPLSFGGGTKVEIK

Substitutions are numbered in sequence along the VH above, starting at 1 (not Kabat). Affinities are written as log10 Kd with Kd in nM; a lower number is a better binder. An entry "ND" has no value in the source: the pair was not observed among the diploids in that replicate. This suggests poor binding but is not conclusive. Three control strains display no target. For all heavy chain designs, 1% of the pairings with them gave a signal, with a median of 2.08 and one signal in twenty below 0.84, so weak values seen in few replicates may be background. Also given: how often the same scFv was detected with the empty control strains, with their mean in brackets. The authors' rule: three or more of the six replicates give a measured affinity, fewer mean a poor binder. A sequence measured in both rounds can read differently, since the two assays cover different ranges.

changes,log10 Kd (nM) by replicate,signal with controls
T28N/R56L/R100T/F105E,ND / ND / ND / ND / ND / ND,0/18
T104D/F105G,ND / ND / ND / ND / ND / ND,0/18
F59A/G61S/S63D,0.77 / 0.60 / 0.34 / 0.68 / 0.80 / 0.93,0/18
G61K/K65R/A101V,ND / ND / ND / ND / ND / ND,0/18
G61D/S107V,0.38 / ND / ND / -0.05 / ND / 0.79,0/18
L29I/S35T/V50F/G61I/A102T,ND / ND / ND / ND / ND / ND,1/18 (1.60)
T28D/N30E/S31E/R100I,0.03 / 0.62 / ND / 0.30 / -0.10 / ND,1/18 (0.95)
Y32F/S53A/A101L/D106S,2.14 / 1.59 / 1.73 / 1.67 / 1.36 / 1.24,1/18 (3.18)
A101V/A102G,1.57 / 1.33 / ND / 1.37 / 0.98 / 1.20,0/18
F59A/A102S/G103A/F105N/S107L,ND / ND / ND / ND / ND / ND,0/18
A101D/T104I,ND / ND / ND / ND / ND / ND,1/18 (1.96)
T28N/N30D/S31E/R100T/T104L,ND / ND / ND / ND / ND / ND,0/18
S31D/G61H/R100F/A102S,2.04 / 1.84 / 1.59 / ND / ND / 3.19,1/18 (2.07)
G26K/T28S/R57H,ND / 3.41 / ND / ND / ND / ND,0/18
R56V/S107N,ND / ND / ND / 2.07 / 1.71 / 1.97,0/18
R56A/F59A/S63K/A101T/T104D,ND / ND / ND / ND / ND / ND,0/18
R56L/S63E/A101N/S107Q,ND / ND / ND / ND / ND / ND,0/18
S31M/G61L/S63Q,ND / ND / ND / ND / ND / ND,0/18
N30D/R57K,ND / ND / ND / ND / ND / ND,0/18
T28S/G61V/V64T/A101Q,2.30 / ND / ND / ND / ND / ND,0/18
G61S/S63K,1.66 / 1.12 / 1.45 / 1.66 / 0.83 / 0.99,0/18
L29I/G61S/R100D/T104L,ND / ND / ND / ND / ND / ND,0/18
R56N/S63A/A101E/T104A/F105W/S107Q,ND / ND / ND / ND / ND / ND,0/18
G33Q/R100M/F105K,ND / ND / ND / ND / ND / ND,0/18
R100N/A101Q,3.06 / 0.65 / 1.57 / 0.96 / 0.58 / 0.72,0/18
G61Y/G103L,ND / ND / ND / ND / ND / ND,0/18
I34G/I51D/D62N/S63Q/K65R/T104M,ND / ND / ND / ND / ND / ND,0/18
R56F/S63D/R100K,2.06 / ND / ND / ND / ND / ND,1/18 (3.55)
S31Q/D54S/S63K/A101H/S107T,ND / ND / ND / ND / ND / ND,0/18
F27D/S31M,1.80 / 1.92 / 1.45 / 1.18 / 1.87 / 2.88,0/18
S53A/R100F/A102E,ND / ND / ND / ND / 1.96 / ND,0/18
T28H/D106W,ND / ND / ND / ND / ND / ND,0/18
F27A/F59A/G61H/A102Q/D106R,ND / ND / ND / ND / ND / ND,0/18
S31D/T58Q,1.31 / 1.29 / 1.54 / 1.64 / ND / 1.41,1/18 (2.60)
A101N/A102C,ND / ND / ND / ND / ND / ND,0/18
G26L/R56I/V64T,ND / ND / ND / ND / ND / ND,0/18

Picked from the list: the 5 lowest averages where every replicate gave a value.

changes,log10 Kd (nM) by replicate,signal with controls
F59A/G61S/S63D,0.77 / 0.60 / 0.34 / 0.68 / 0.80 / 0.93,0/18
R100N/A101Q,3.06 / 0.65 / 1.57 / 0.96 / 0.58 / 0.72,0/18
G61S/S63K,1.66 / 1.12 / 1.45 / 1.66 / 0.83 / 0.99,0/18
Y32F/S53A/A101L/D106S,2.14 / 1.59 / 1.73 / 1.67 / 1.36 / 1.24,1/18 (3.18)
F27D/S31M,1.80 / 1.92 / 1.45 / 1.18 / 1.87 / 2.88,0/18